Assay [1] deals with Bevacizumab. The assay is described as follows: Microtiter plate chromatography of resins, Bevacizumab whole IgG (bound, yield, selectivity). It counts as binding, humanized. As to conditions: for Selectivity: fraction of bound Bevacizumab whole IgG / fraction of bound HCP, truncated beyond values of 10; for selectivity index: fraction of bound Bevacizumab whole IgG divided by fraction of bound HCP, truncated beyond 10. The protocol: Resins were assessed in packed mode by microtiter plate chromatography. For each column, approximately 30 μl of resin were transferred to a 384-well filter plate and sealed with appropriate top frits.
Columns were equilibrated with 6.7 column volumes (cv) of phosphate buffered saline (0.15 M NaCl, 20 mM sodium phosphate, pH 7.3; PBS) prior to injection. Either 3.3 cv of whole IgGs dissolved at 0.75 mg ml^−1, Fab or Fc fragments dissolved at 0.25 mg ml^−1 (all three in PBS) or host cell proteins (HCP) were injected onto columns. Antibody fragments of Bevacizumab (Fab and Fc) were prepared by cleavage of whole IgG with papain protease (3) according to the protocol of the manufacturer. Unbound protein was washed from columns with 5 cv of PBS prior to elution with 5 cv of glycine buffer at pH 2.5. Volumes transferred were spun through columns at 50 g for 1-2 min. During injection of samples, acceleration was reduced to 10 g and centrifugation time increased to 5-10 min. Effluent fractions were collected in 384-well plates and concentrations of protein analyzed by Bradford assay. Protein masses mi, mft and me (see below) were calculated as the product of fraction volume and measured protein concentration.
The fraction of ‘bound’ protein was calculated as the difference between the total mass of protein injected mi and the mass of protein detected in the flowthrough mft, divided by the total mass of protein injected.
The ‘yield’ of protein was calculated as the mass of protein eluted me, divided by the mass of protein injected mi.
The ‘selectivity’ of resins was calculated as the fraction of bound antibody BAb, divided by the fraction of bound host cell proteins BHCP.
the fraction of ‘bound’ protein and the ‘yield’ of protein were calculated for each resin based on data for whole IgG-antibodies. In the case of Bevacizumab fragments and host cell proteins, only the fraction of ‘bound’ protein is given. Selectivity of resins was calculated from data for Bevacizumab Whole IgG and host cell proteins. Due to limited experimental precision, selectivity was truncated beyond values of 10.

The target in assay [2] is T1, Bevacizumab (Homo sapiens, UniProt P01857).
T1 construct: fused on or other part: humanised anti-VEGF-A VH domain N-terminal of the gamma-1 constant region (engineered, no UniProt entry)
Put plainly: Langmuir isotherms by batch adsorption. It counts as binding, humanized. The following applies: read-out: Kd (dissociation constant, Langmuir isotherm); Bevacizumab in PBS pH 7.3, 25° C., at least 3 h. The protocol: Experiments were performed with Bevacizumab as antibody. Parameters of Langmuir isotherms for purified antibody were determined by batch adsorption experiments in 96-well microtiter plates. In each well, 10 μl of sorbent slurry (50% v/v) were mixed with 100 μl of protein solution. Initial concentrations varied from 0.05-5 mg ml^−1 in phosphate-buffered saline (0.15 M NaCl, 20 mM phosphate buffer, pH 7.3; PBS). Reactions were agitated vigorously at 25° C. for at least 3 h. Afterwards, antibody concentration in the supernatents were measured by Bradford assay.
Parameters of Langmuir isotherms, i.e. dissociation constants Kd and maximum capacities qm, were determined from the measured concentrations in supernatants. Parameters were estimated by numerical fitting of the model equation derived by Chase (4).

Regarding `COc1ccc(NC(=O)c2cc(-c3ccco3)n(C)n2)cc1C(=O)NCCCN` [Ligand L1, 5-[5-(2-Furyl)-1-methylpyrazol-3-yl]carboxamido-2-methoxybenzoic acid N-(3-aminopropyl)amide], in assay [1], the Selectivity stood at 3.3 and the selectivity index was found to be 3.3. In addition, the dissociation constant Kd in assay [2] is 153 µM.
With `COc1ccc(NC(=O)c2cncc(-c3ccco3)c2)cc1C(=O)NCCCN` [Ligand L13, 5-[3-(2-Furyl)pyridin-5-yl]carboxamido-2-methoxybenzoic acid N-(3-aminopropyl)amide], the Selectivity in assay [1] is 2.7.
In the case of `Cn1nc(C(=O)Nc2cccc(C(=O)NCCCN)c2)cc1-c1ccco1` [Ligand L17, 3-[5-(2-Furyl)-1-methylpyrazol-3-yl]carboxamidobenzoic acid N-(3-aminopropyl)amide], the Selectivity in assay [1] was found to be 2.8. Moreover, the Kd in assay [2] is 686 µM.
On to `COc1ccc(NC(=O)c2cncc(-c3ccoc3)c2)cc1C(=O)NCCCN` [Ligand L22, 5-[3-(3-Furyl)pyridin-5-yl]carboxamido-2-methoxybenzoic acid N-(3-aminopropyl)amide], for which the Selectivity in assay [1] came to 3.1.
Consider `COc1ccc(NC(=O)c2cncc(C3CC3)c2)cc1C(=O)NCCCN` [Ligand L23, 5-(3-Cyclopropylpyridin-5-yl)carboxamido-2-methoxybenzoic acid N-(3-aminopropyl)amide], for which, in assay [1], the Selectivity is on record as 3.1. Moreover, the Kd in assay [2] is 280 µM.
For the compound `C#Cc1cncc(C(=O)Nc2ccc(OC)c(C(=O)NCCCN)c2)c1` [Ligand L24, 5-(3-Ethynylpyridin-5-yl)carboxamido-2-methoxybenzoic acid N-(3-aminopropyl)amide], the Selectivity in assay [1] was found to be 3.5.
As for `COc1ccc(NC(=O)c2nn(C)c3ccccc23)cc1C(=O)NCCCN` [Ligand L27, 2-Methoxy-5-(1-methylindazol-3-yl)carboxamidobenzoic acid N-(3-aminopropyl)amide], in assay [1], the Selectivity was 2.9 and the selectivity index worked out at 2.9. The Kd in assay [2] is 241 µM.

For the origin of these results see patent US20130131321A1, “LIGANDS FOR ANTIBODY AND Fc-FUSION PROTEIN PURIFICATION BY AFFINITY CHROMATOGRAPHY” (GRAFFINITY PHARMACEUTICALS GMBH, priority 2010, published 2013).
